{"source": "paper PMC7365701", "about": "(Journal of medicinal chemistry, 2020)", "origin": "cited, not measured here", "test_system": "PPARα", "conditions": "cited from earlier work", "data": [{"compound": "Cc1nc(-c2ccc(C(F)(F)F)cc2)sc1C(=O)NCc1ccc(OC(C)(C)C(=O)O)cc1", "note": "[GW590735]", "values": [{"measurement": "selectivity over PPARγ and PPARδ", "result": "≥ 500", "unit": "fold"}]}]}
